According to patent US20260272952A1, “CANNABINOIDS FOR TREATING NEUROINFLAMMATION” (Lundquist Institute for Biomedical Innovation at …, priority 2022, published 2026):

Test system: Sanfilippo B mice (Naglu−/−)
Assay: Pilot in vivo study of CBD on cellular neuroinflammation (CD68 and GFAP brain immunostaining)
Conditions: 9 months old Naglu−/− mice; 100 mg/kg CBD in sesame oil, oral gavage, once/day, 4 weeks; brain sections; vs vehicle

Substance: Cannabidiol [CBD]
- astrocyte activation (percentage immunoreactivity of GFAP): decreased
- microglia activation (percentage immunoreactivity of CD68): decreased
